# Experiments:
# The chains behind the UniProt entries cited, without tags or fusion partners. A line that says so, or that is headed by a name, gives the form on record, which may keep a tag or linker. Residues count along the entry.
# UniProt P15056, 416-766 limits assumed: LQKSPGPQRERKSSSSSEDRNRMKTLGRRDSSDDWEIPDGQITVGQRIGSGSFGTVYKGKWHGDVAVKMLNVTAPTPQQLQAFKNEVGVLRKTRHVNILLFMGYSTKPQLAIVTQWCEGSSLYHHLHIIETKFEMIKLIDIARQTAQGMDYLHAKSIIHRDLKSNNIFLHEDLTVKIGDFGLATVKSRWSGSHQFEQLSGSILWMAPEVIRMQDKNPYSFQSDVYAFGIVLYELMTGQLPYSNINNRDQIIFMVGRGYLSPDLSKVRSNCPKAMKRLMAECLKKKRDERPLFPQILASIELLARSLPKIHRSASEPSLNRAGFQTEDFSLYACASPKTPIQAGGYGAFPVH
# UniProt P10398, 273-606 with tags or gaps Y301D/Y302D limits assumed: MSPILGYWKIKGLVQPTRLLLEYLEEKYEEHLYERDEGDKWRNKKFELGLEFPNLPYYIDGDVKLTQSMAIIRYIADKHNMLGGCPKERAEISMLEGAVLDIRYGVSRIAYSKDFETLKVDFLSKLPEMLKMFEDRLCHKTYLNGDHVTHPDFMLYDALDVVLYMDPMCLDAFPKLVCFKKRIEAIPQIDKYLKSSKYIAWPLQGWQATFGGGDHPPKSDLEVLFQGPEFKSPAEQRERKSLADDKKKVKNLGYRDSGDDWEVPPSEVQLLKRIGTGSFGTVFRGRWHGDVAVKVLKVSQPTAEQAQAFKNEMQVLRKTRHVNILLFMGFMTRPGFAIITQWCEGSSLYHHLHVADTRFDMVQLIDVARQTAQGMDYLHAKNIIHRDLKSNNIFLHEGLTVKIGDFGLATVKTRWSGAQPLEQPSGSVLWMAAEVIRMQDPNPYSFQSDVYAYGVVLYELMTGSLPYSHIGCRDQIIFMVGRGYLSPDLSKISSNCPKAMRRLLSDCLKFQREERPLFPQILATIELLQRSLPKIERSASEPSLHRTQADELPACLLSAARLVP
# UniProt P04049, 307-648 Y340D/Y341D limits assumed: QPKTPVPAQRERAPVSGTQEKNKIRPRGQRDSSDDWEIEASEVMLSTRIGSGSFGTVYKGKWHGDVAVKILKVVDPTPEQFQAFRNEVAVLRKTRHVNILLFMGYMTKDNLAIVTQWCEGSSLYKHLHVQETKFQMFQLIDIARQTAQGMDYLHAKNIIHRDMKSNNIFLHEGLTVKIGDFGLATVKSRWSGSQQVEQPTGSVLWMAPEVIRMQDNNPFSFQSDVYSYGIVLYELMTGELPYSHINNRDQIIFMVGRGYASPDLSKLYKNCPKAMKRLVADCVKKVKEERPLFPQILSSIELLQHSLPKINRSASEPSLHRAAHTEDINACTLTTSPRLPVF
# [1] = target: B-Raf kinase (SEQ. ID NO: 2) (Homo sapiens (Human), UniProt P15056); test: Biochemical Assay for B-Raf (1); details: read-out: BRAF (1) IC50; Table J, assay version (1)
# Description: Biochemical Assay for B-Raf (1)
# (§1) Activity of B-Raf kinase (SEQ. ID NO: 2) was determined spectroscopically using a coupled pyruvate kinase/lactate dehydrogenase assay that continuously monitors the ATP hydrolysis-dependent oxidation of NADH (e.g., Schindler et al., Science, 2000, 289, 1938-1942). Assays were conducted in 384-well plates (100 μL final volume) using 0.13 nM B-Raf (Sigma), 1.5 units pyruvate kinase, 2.1 units lactate dehydrogenase, 1 mM phosphoenol pyruvate, 0.28 mM NADH, 30.1 nM MEK (SignalChem), and 1 mM ATP in assay buffer (100 mM Tris, Ph 7.5, 15 mM MgCl2, 0.5 mM DTT, 0.1% octyl-glucoside, 0.002% (w/v) BSA, and 0.002% Triton X-100). Inhibition of B-Raf was measured by adding serial diluted test compound (final assay concentration of 1% DMSO). A decrease in absorption at 340 nm was monitored continuously for 6 h at 30° C. on a multi-mode microplate reader (BioTek). The reaction rate was calculated using the 4 to 5 h time frame. The reaction rate at each concentration of compound was converted to percent inhibition using controls (i.e., reaction with no test compound and reaction with a known inhibitor) and IC50 values were calculated by fitting a four-parameter sigmoidal curve to the data using Prism (GraphPad software).
# [2] = target: A-Raf kinase (SEQ. ID No: 1) (Homo sapiens (Human), UniProt P10398, Y301D/Y302D); test: Biochemical Assay for A-Raf (1); details: read-out: ARAF (1) IC50; Table J, assay version (1)
# Description: Biochemical Assay for A-Raf (1)
# as §1, with “A-Raf” for “B-Raf”, “No: 1)” for “NO: 2)”, “5.55” for “0.13”, “pH” for “Ph”
# [3] = target: C-Raf kinase (SEQ. ID NO: 3) (Homo sapiens (Human), UniProt P04049, Y340D/Y341D); test: Biochemical Assay for C-Raf (1); details: read-out: CRAF (1) IC50; Table J, assay version (1)
# Description: Biochemical Assay for C-Raf (1)
# as §1, with “of C-Raf” for “of B-Raf”, “NO: 3)” for “NO: 2)”, “using 0.43” for “using 0.13”, “nM C-Raf” for “nM B-Raf”
# A375 cells = test: A375 Cell Proliferation Assay (1); details: read-out: A375 (1) IC50
# Description: For Table J, “+” refers to an IC50 less than or equal to 100 nM; “++” refers to an IC50 greater than 100 nM and less than or equal to 500 nM; “+++” refers to an IC50 greater than 500 nM and less than or equal to 1000 nM; and “++++” refers to an IC50 greater than 1000 nM and less than or equal to 10000 nM. A375 Cell Proliferation Assay (1)
# A375 cells (catalog (#CRL-1619) are obtained from the American Type Culture Collect (ATTC, Manassas, VA). Briefly, cells were grown in DMEM High Glucose supplemented with 10% characterized fetal bovine serum (Invitrogen, Carlsbad, CA) and 1% Penicillin/Streptomycin/L-Glutamine at 37° C., 5% CO2, and 95% humidity. Cells are expanded until reaching 70-95% confluency at which point they are sub-cultured or harvested for assay use. A serial dilution of test compound is dispensed into a 96-well black clear bottom plate in triplicate. Two thousand five hundred cells are added per well in 200 μL complete growth medium in the 96-well plate. Plates are incubated for 67-72 h at 37° C., 5% CO2, and 95% humidity. At the end of the incubation, 40 μL of a 440 μM solution of resazurin (Sigma, St. Louis, MO) in PBS is added to each well of the plate and plates are incubated for an additional 5-6 h at 37° C., 5% CO2, and 95% humidity. Plates are read on a Synergy2 or equivalent reader (Biotek, Winooski VT) using an excitation of 540 nm and an emission of 600 nm. Data is analyzed using Prism software (GraphPad, San Diego, CA) to calculate IC50 values.
IC50 [1] [nM],IC50 [2] [nM],IC50 [3] [nM],IC50 (A375 cells) [nM],Structure (SMILES)
< 100,1000 to 10000,< 100,100 to 500,Cc1ncc(NC(=O)c2cn(C(C)C)nn2)cc1-c1cccc(-c2cc(NC(=O)C3CC3)ncn2)c1
100 to 500,1000 to 10000,< 100,< 100,CNC(=O)c1cc(-c2cc(-c3cc(NC(=O)c4ccnc(C(C)(C)C#N)c4)ccc3C)cc(C)n2)ccn1
< 100,1000 to 10000,< 100,100 to 500,CNC(=O)c1cc(-c2cc(-c3cc(NC(=O)c4ccnc(C(F)(F)F)c4)ccc3C)ccn2)ccn1
100 to 500,1000 to 10000,100 to 500,1000 to 10000,Cc1ccc(NC(=O)c2ccnc(C(C)(C)C#N)c2)cc1-c1cccc(-c2cc(NC3CN(C)C3)ncn2)c1

# From US12319655B2, “RAF kinase inhibitors and methods of use thereof” (Deciphera Pharmaceuticals, LLC, priority 2021, dated 2025)
